These results are taken from ChEMBL document CHEMBL5674886, “GLUT4 expression and glucose transport in human induced pluripotent stem cell-derived cardiomyocytes” (PLoS One, 2019).

In this assay the target is T1, Solute carrier family 2, facilitated glucose transporter member 1 (Homo sapiens) (UniProt P11166).
T1 sequence (whole entry): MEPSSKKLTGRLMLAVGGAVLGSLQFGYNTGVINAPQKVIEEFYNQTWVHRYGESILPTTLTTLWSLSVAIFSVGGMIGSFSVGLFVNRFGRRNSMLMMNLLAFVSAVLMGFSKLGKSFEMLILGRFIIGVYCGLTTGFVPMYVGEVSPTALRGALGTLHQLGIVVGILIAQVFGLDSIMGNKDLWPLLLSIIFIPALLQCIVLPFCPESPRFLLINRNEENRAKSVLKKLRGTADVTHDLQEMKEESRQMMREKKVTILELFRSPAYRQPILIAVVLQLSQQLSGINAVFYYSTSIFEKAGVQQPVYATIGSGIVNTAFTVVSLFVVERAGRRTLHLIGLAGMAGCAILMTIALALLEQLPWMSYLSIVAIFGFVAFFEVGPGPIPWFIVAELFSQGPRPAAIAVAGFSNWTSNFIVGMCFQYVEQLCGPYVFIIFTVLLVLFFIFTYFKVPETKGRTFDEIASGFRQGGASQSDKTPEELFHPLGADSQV
Conditions: iPSC-CM, dose 20.0 nM, time 30.0 min.

In turn, `Cc1c(NC(=O)c2cc(C(N)=O)nc3cc(F)ccc23)c(C(F)(F)F)nn1Cc1ccc(C#N)cc1` [BAY-876] came in with an inhibition of 50%.
